Like-named read-outs stand apart in the source and are kept apart here.
Legend:
Caco-2 cell monolayers [1] = settings: 180 min
Caco-2 cell monolayers [2] = settings: literature; cited from earlier work

`O=C(O)c1cc(N=Nc2ccc(S(=O)(=O)Nc3ccccn3)cc2)ccc1O` [sulfasalazine, 2-hydroxy-5-[2-[4-[(2-pyridinylamino)sulfonyl]phenyl]diazenyl]-benzoic acid] gave a Cumulative drug transport (Caco-2 cell monolayers [1]; 200 μg/mL, direction ab) of 3.81 μg/cm^2, a Cumulative drug transport (Caco-2 cell monolayers [1]; 200 μg/mL, direction ba) of 14.81 μg/cm^2 and a Cumulative drug transport (Caco-2 cell monolayers [1]; 2000 μg/mL, direction ab) of 9.86 μg/cm^2. For the same compound, the Cumulative drug transport (Caco-2 cell monolayers [1]; 2000 μg/mL, direction ba) was 32.07 μg/cm^2 and the “permeability through Caco-2 cell monolayers” value (Caco-2 cell monolayers [2]) was “low permeability”.

Source: patent publication US12274706B2 (MEDAC GESELLSCHAFT FUER KLINISCHE SPEZIALPRAEPARATE MBH, priority 2017, dated 2025)
